The test system of this test is induction of TAT by dexamethasone in HepG2 cells. In words: HepG2 tyrosine aminotransferase (TAT) assay. In kind it is cell-based. The following applies: Homo sapiens, read-out: average EC50 value (half-maximal effect) of induced TAT production. How it is done:
Example 21. HepG2 Tyrosine Aminotransferase (TAT) Assay
Glucocorticoid mediated activation of TAT occurs by transactivation of glucocorticoid response elements in the TAT promoter by glucocorticoid receptor agonist complex.
TAT activity was measured as outlined in the literature by A. Ali et al., J. Med. Chem., 2004, 47, 2441-2452.
HepG2 cells were cultured using MEME media supplemented with 10% (v/v) foetal bovine serum; 2 mM L-glutamine and 1% (v/v) NEAA at 37° C., 5%/95% (v/v) CO2/air. The HepG2 cells were counted and adjusted to yield a density of 0.125×10^6 cells/ml in RPMI 1640 without phenol red, 10% (v/v) charcoal stripped FBS, 2 mM L-glutamine and seeded at 25,000 cells/well in 200 μl into 96 well, sterile, tissue culture micro titre plates, and incubated at 37° C., 5% CO2 for 24 hours
Growth media was removed and replaced with assay media {RPMI 1640 without phenol red, 2 mM L-glutamine+10 μM forskolin}. […] Compounds were serially half log diluted in 100% (v/v) dimethylsupfoxide from a 10 mM stock.
HepG2 cells were then lysed with 30 μl of cell lysis buffer containing a protease inhibitor cocktail for 15 minutes at 4° C. 155 μl of substrate mixture was then added containing 5.4 mM Tyrosine sodium salt, 10.8 mM alpha ketoglutarate and 0.06 mM pyridoxal 5′ phosphate in 0.1M potassium phosphate buffer (pH 7.4). […] The TAT activity product was measured by absorbance at […]. […]

Consider `C[C@@H]1C[C@H]2[C@@H]3CCC4=CC(=O)C=C[C@]4(C)[C@@]3(F)[C@@H](O)C[C@]2(C)[C@@]1(O)C(=O)CO` [Dexamethasone, dexamethasone, reference compound], for which the EC50 was 20 nM.

These data come from patent publication US12226412B2, “Heteroaryl-ketone fused azadecalin glucocorticoid receptor modulators” (Corcept Therapeutics, Inc., priority 2012, dated 2025).
